Test system: influenza A virus (strain A/PR/8/34)
Format: cell-based

With `NC(=O)c1ncn([C@@H]2O[C@H](CO)[C@@H](O)[C@H]2O)n1` [Ribavirin, reference compound] the “SI (selectivity index, ratio between CC50 and EC90)” value was greater than 24.

Reference: publication PMC4980666, “N-acylhydrazone inhibitors of influenza virus PA endonuclease with versatile metal binding modes” (Scientific Reports, 2016)
